Measurements: patent US20220177537A1 (CHINA PHARMACEUTICAL UNIVERSITY, published 2022)
Like-named read-outs stand apart in the source and are kept apart here. One block for each molecule: values may come before it.

Experiments:
Assay in all cases: cell-based or functional assay
[1] = target: mGLP1R (mouse (read from the printed label 'mGLP1R'; not spelled out)) (UniProt O35659)
[2] = target: mGCGR (mouse (read from the printed label 'mGCGR'; not spelled out)) (UniProt Q61606)
[3] = target: mGLP1R (mouse (read from the printed label 'mGLP1R'; not spelled out)) (UniProt O35659); remark: listed apart in the source
[4] = target: mGLP1R (mouse (read from the printed label 'mGLP1R'; not spelled out)) (UniProt O35659); remark: listed apart in the source
mGCGR [5] = target: T1, mGCGR (mouse (read from the printed label …, UniProt Q61606 27-485))
mGLP1R [6] = target: T2, mGLP1R (mouse (read from the printed label …, UniProt O35659 22-463))
T2 sequence (looked up): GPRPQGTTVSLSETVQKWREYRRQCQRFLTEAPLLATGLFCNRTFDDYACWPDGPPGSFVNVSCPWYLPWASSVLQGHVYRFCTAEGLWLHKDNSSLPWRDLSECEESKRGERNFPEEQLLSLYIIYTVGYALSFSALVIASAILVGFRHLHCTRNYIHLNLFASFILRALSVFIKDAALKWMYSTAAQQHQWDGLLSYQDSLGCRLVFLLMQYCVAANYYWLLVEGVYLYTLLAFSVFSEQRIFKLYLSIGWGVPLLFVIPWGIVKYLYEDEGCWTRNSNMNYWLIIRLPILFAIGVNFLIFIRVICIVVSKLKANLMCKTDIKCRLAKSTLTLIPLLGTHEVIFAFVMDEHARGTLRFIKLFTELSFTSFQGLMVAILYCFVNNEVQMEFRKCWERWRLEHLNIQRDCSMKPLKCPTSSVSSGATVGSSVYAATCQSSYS

mGCGR [7] = target: T1, mGCGR; remark: listed apart in the source
mGLP1R [8] = target: T2, mGLP1R; remark: listed apart in the source
mGCGR [9] = target: T1, mGCGR; remark: listed apart in the source
mGLP1R [10] = target: T2, mGLP1R; remark: listed apart in the source

Molecule: Exenatide (from UniProt P26349 48-86) (peptide)
EC50 (cAMP, HEK 293 cells transfected with GLP-1R) [1]: 6.2 pM
EC50 (cAMP, HEK 293 cells transfected with GCGR) [2]: > 1000 pM
EC50 (cAMP, HEK 293 cells transfected with GLP-1R) [3]: 5.8 pM
EC50 (cAMP, HEK 293 cells transfected with GLP-1R) [4]: 6.5 pM

EC50 (cAMP, HEK 293 cells transfected with GCGR) (mGCGR [5]): 6.1 pM
EC50 (cAMP, HEK 293 cells transfected with GLP-1R) (mGLP1R [6]): 15.7 pM
EC50 (cAMP, HEK 293 cells transfected with GCGR) (mGCGR [7]): 7.3 pM
EC50 (cAMP, HEK 293 cells transfected with GLP-1R) (mGLP1R [8]): 22.6 pM
EC50 (cAMP, HEK 293 cells transfected with GCGR) (mGCGR [9]): 6.7 pM
EC50 (cAMP, HEK 293 cells transfected with GLP-1R) (mGLP1R [10]): 17.6 pM
B1: Oxyntomodulin (OXM) (peptide)
peptide: HSQGTFTSDYSKYLDSRRAQDFVQWLMNTKRNRNNIA
